Our source for the Ratio values is ChEMBL document CHEMBL1649335, “Discovery of {1-[4-(2-{hexahydropyrrolo[3,4-c]pyrrol-2(1H)-yl}-1H-benzimidazol-1-yl)piperidin-1-yl]cyclooctyl}methanol, systemically potent novel non-peptide agonist of nociceptin/orphanin FQ receptor as analgesic for the treatment of neuropathic pain: design, synthesis, and structure-activity …” (Bioorg Med Chem, 2010).

The series is described as follows: Ratio of drug level in plasma to brain in Sprague-Dawley rat at 10 mg/kg, sc. To be noted: in vivo, strain Sprague-Dawley.

Regarding `OCC1(N2CCC(n3c(N4CC5CNCC5C4)nc4ccccc43)CC2)CCCCCCC1` (configuration not stated), the Ratio worked out at 3.95.

As to `CN1CCN(c2nc3ccccc3n2C2CCN(C3(CO)CCCCCCC3)CC2)CC1`, the Ratio came to 0.58.
